The assay has as its system IL-15 induced P-STAT5 in human PBMC (total lymphocytes). In words: PBMC IL-15 Induced P-STAT5. Conditions: IL-15 stimulated, read-out: PBMC IL15-pSTAT5 IC50. It counts as cell-based. As for the experimental part: PBMC IL-15 Induced P-STAT5
Frozen human PBMC (200-250 million cells/vial) was thawed at 37° C. The cells were transferred to 10 mL warm medium in a 50-mL conical tube, and centrifuged at 1,200 RPM at room temperature for 5 min. The supernatant was aspirated. Cells were suspended in 3 mL warm human plasma and incubated at 37° C. in a tissue culture incubator for 1.5 to 2 h. After adding 47 ml D-PBS (37° C.) to PBMC/FBS suspension, centrifuging at 1,200 RPM at room temperature for 5 min, and aspirating the supernatant, the cells were resuspended in 20 mL warm RPMI medium. Ninety μL of cell suspension were pipetted per well in a 96-well, deep-well, V-bottom plate, and the plate was incubated at 37° C. for 30 min. Five μL of compound were transferred to each well (final 0.2% DMSO), vortex gently and incubate at 37° C. for 15 min; 5 μL 4% DMSO/PBS were added to the control wells. […] Samples were analyzed using a BD Calibur™ or BD FACSCanto™ flow cytometer equipped with the BD High Throughput Sampler.

Each structure is given as a SMILES string.

Regarding `C=CC(=O)N1CC[C@@H]2CCN(c3ncnc4[nH]ccc34)[C@@H]2C1` (single isomer, unassigned) [Example 8], the IC50 turned out to be 116 nM.

As usually defined, the IC50 is the point on the concentration scale where inhibition reaches its midpoint.

The values above are taken from patent US11111242B2, “Pyrrolo[2,3-d]pyrimidinyl, pyrrolo[2,3-b]pyrazinyl and pyrrolo[2,3-d]pyridinyl acrylamides” (Pfizer Inc., priority 2013, dated 2021).
